Antibody variant affinities, Ab-95 light chain, assay 2

Reference: Engelhart et al. 2022, doi:10.1038/s41597-022-01779-4. File: FLAb, binding data.

Target peptide (SARS-CoV-2 spike, HR2 region): PDVDLGDISGINAS

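The starting antibody came from a phage panning campaign against this peptide. Variants in AAYL52 differ from the parent at up to three CDR positions; double and triple changes were sampled at random. In AlphaSeq, yeast of one mating type display the scFv and yeast of the other type display the target. Pairs that bind mate more often; barcode pairs of the diploids are counted by sequencing. Read counts were normalised to the haploid input and turned into Kd by a linear fit to BCL2-family pairs of known affinity, for each replicate. Mating was done three times.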

Parent: Ab-95, a human scFv built as VH, a 15-residue (Gly4Ser)3 linker, VL. Only the CDRs of the light chain vary.
VH: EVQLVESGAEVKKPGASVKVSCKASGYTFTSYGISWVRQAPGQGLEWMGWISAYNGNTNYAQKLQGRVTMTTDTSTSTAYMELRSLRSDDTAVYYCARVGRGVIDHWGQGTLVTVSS
VL: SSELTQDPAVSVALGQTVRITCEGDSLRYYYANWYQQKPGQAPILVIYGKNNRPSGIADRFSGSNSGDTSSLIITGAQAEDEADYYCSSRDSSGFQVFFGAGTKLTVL

Changes read parent residue, position, new residue, counted from the first residue of the VL shown.
Scale: log10 of Kd in nM, estimated from mating counts; low values are strong binders.
The mean shown is taken over the replicates in which the pair was detected.
"nd" marks a missing value. The strain was present, yet no cells mated with the target were sequenced in that replicate, which points to weak or no binding.

changes	log10 Kd, replicates	log10 Kd (nM), mean	control signals
N51M/N52Q/Q96K	nd nd nd	nd	0/9
R90M/F98G	2.72 2.97 4.16	3.28	0/9
R28L/Y29H/G49W	nd nd nd	nd	1/9 (4.30)
G49D/K50Q/S88Y	3.68 nd nd	3.68	1/9 (4.10)
A32Q/G49T/N52P	3.80 3.46 nd	3.63	6/9 (3.86)
R28Y/G49Y/Q96P	3.86 3.92 3.81	3.87	2/9 (4.33)
S26M/R28E/D91Q	nd 3.13 nd	3.13	1/9 (4.86)
E23C/D25V/R28K	2.78 2.31 2.49	2.52	1/9 (4.15)
G24Y/N33C/G49L	4.00 nd 3.51	3.75	5/9 (3.65)
A32D/K50T/S93F	nd 3.47 nd	3.47	4/9 (4.50)
R28N	1.86 1.84 1.43	1.71	4/9 (4.04)
E23D/S89P/F98R	2.70 2.80 2.71	2.74	3/9 (4.82)
S26R/G49M/G94W	nd nd nd	nd	2/9 (4.67)
D25H/Y30N/A32S	2.73 3.55 2.19	2.82	2/9 (3.59)
R28H/G94F/F95R	2.95 2.79 3.51	3.09	6/9 (3.59)
P54D/S89Q/S92C	3.52 2.66 4.58	3.59	3/9 (4.60)
R28Q/Y31S	1.41 1.29 0.76	1.15	3/9 (4.79)
G49H/N51W/D91P	nd nd nd	nd	1/9 (2.33)
N52W/S89I/G94R	3.46 3.22 4.37	3.68	3/9 (4.03)
Y30I/G49Q/S89F	nd nd nd	nd	2/9 (3.62)
G24I/S26W/V97W	nd 3.55 4.56	4.05	3/9 (4.01)
L27S/S89F	3.48 nd nd	3.48	2/9 (3.26)
N51W/S55H/F98Q	3.23 3.43 2.77	3.14	4/9 (4.24)
S26L/P54L/G94P	nd 5.49 nd	5.49	0/9
N52W/S55R/G94N	4.58 nd nd	4.58	4/9 (3.92)
G24H/S26I/K50C	nd nd nd	nd	3/9 (4.34)
Y31R/G49K/D91M	3.81 3.90 nd	3.85	2/9 (3.52)
G49C/R90D/Q96D	4.04 3.33 4.26	3.88	2/9 (5.00)
G24S/A32Y/P54K	5.07 4.22 3.25	4.18	4/9 (4.29)
G49T/P54A/D91W	5.06 nd 3.25	4.16	2/9 (4.83)
L27A/P54R/S89H	nd nd nd	nd	0/9
S89N/S92G/G94A	nd 2.81 nd	2.81	1/9 (2.91)

Repeated from above, the 5 best binders with a signal in all replicates:

changes	log10 Kd, replicates	log10 Kd (nM), mean	control signals
R28Q/Y31S	1.41 1.29 0.76	1.15	3/9 (4.79)
R28N	1.86 1.84 1.43	1.71	4/9 (4.04)
E23C/D25V/R28K	2.78 2.31 2.49	2.52	1/9 (4.15)
E23D/S89P/F98R	2.70 2.80 2.71	2.74	3/9 (4.82)
D25H/Y30N/A32S	2.73 3.55 2.19	2.82	2/9 (3.59)

Three control strains display no target. For library AAYL52, 28% of the pairings with them gave a signal, with a median of 3.91 and one signal in twenty below 2.90, so weak values seen in few replicates may be background. Also given: how often the same scFv was detected with the empty control strains, with their mean in brackets.